Antibody variant affinities, Ab-14 light chain, assay 1

From the AlphaSeq antibody data of Engelhart et al. 2022 (doi:10.1038/s41597-022-01779-4), copy in the FLAb collection.

Target: peptide PDVDLGDISGINAS, taken from heptad repeat 2 (HR2) of SARS-CoV-2 spike.

The variants keep the heavy chain, the linker and the frameworks of Ab-14 (scFv order VH, a (GGGGS)3 linker, VL).
VH: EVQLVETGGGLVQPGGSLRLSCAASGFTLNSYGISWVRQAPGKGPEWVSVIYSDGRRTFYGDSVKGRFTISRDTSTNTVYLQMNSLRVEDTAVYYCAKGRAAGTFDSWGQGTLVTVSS
VL: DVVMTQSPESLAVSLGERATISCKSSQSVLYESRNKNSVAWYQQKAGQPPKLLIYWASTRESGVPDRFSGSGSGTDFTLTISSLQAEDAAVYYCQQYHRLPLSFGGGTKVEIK

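The parent was found by panning a naive human phage display library on the peptide. Library AAYL50 holds single substitutions and randomly drawn double and triple substitutions in the CDRs. The scFvs were displayed on barcoded MATa yeast, the peptide on MATalpha yeast. Binding brings cells together so that they mate, and sequencing counts the barcode pairs among the diploids. Read counts were normalised to the haploid input and turned into Kd by a linear fit to BCL2-family pairs of known affinity, for each replicate. Mating was done three times.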

Each variant is given by its three light chain CDRs, as the data file delimits them; those of the parent are KSSQSVLYESRNKNSVA, WASTRES, QQYHRLPLS. Values are apparent Kd, the geometric mean of the replicates that gave a signal; lower means stronger binding. "nd" means that the variant was in the library but no mating with the target was seen in any replicate; the authors take this as a sign of poor binding, and no number exists. Nonspecific signal, from three strains lacking the peptide, appeared in 18% of pairings of library AAYL50, centred on 15 µM (5% of these signals below 970 nM); values are not corrected for it. The control count says in how many pairings with the empty strains this scFv gave a signal.

{"CDR-L1": "KHSQSVPYESRNKNSVD", "CDR-L2": "WASTRES", "CDR-L3": "QQYHRLPLS", "Kd (apparent)": "nd", "seen in": "0/3", "signal with controls": "2/9"}
{"CDR-L1": "KSSQSELYYSRNKNSVA", "CDR-L2": "WASTRES", "CDR-L3": "MQYHRLPLS", "Kd (apparent)": "17 nM", "seen in": "3/3", "signal with controls": "5/9"}
{"CDR-L1": "KSKQSVLYESRNKNSYA", "CDR-L2": "WASNRES", "CDR-L3": "QQYHRLPLS", "Kd (apparent)": "120 µM", "seen in": "3/3", "signal with controls": "1/9"}
{"CDR-L1": "KSFQSVLYESRNENVVA", "CDR-L2": "WASTRES", "CDR-L3": "QQYHRLPLS", "Kd (apparent)": "nd", "seen in": "0/3", "signal with controls": "0/9"}
{"CDR-L1": "HSSQSVLYEPRNKNSVA", "CDR-L2": "WASTRES", "CDR-L3": "QQYHRLPLS", "Kd (apparent)": "7.2 nM", "seen in": "3/3", "signal with controls": "2/9"}
{"CDR-L1": "KSSQSQLYEMRNKNSVA", "CDR-L2": "WASTRLS", "CDR-L3": "QQYHRLPLS", "Kd (apparent)": "20 nM", "seen in": "3/3", "signal with controls": "5/9"}
{"CDR-L1": "KSSQSVLYESRNKNGSA", "CDR-L2": "WASKRES", "CDR-L3": "QQYHRLPLS", "Kd (apparent)": "13 µM", "seen in": "2/3", "signal with controls": "5/9"}
{"CDR-L1": "KSDQSILYESRNKNSVA", "CDR-L2": "WASTREV", "CDR-L3": "QQYHRLPLS", "Kd (apparent)": "35 nM", "seen in": "3/3", "signal with controls": "1/9"}
{"CDR-L1": "KSSQSVLYESPNKNSVA", "CDR-L2": "WASTRES", "CDR-L3": "QSVHRLPLS", "Kd (apparent)": "2.2 nM", "seen in": "3/3", "signal with controls": "4/9"}
{"CDR-L1": "KSSQSVLYEFRNKNSVA", "CDR-L2": "WASTRVS", "CDR-L3": "QQYHRLPLS", "Kd (apparent)": "20 nM", "seen in": "3/3", "signal with controls": "2/9"}
{"CDR-L1": "KSFQSSLYESRNKNSVA", "CDR-L2": "WASTRRS", "CDR-L3": "QQYHRLPLS", "Kd (apparent)": "310 nM", "seen in": "3/3", "signal with controls": "1/9"}
{"CDR-L1": "KSSQSVLYESRNKNSVP", "CDR-L2": "WASKRES", "CDR-L3": "QWYHRLPLS", "Kd (apparent)": "nd", "seen in": "0/3", "signal with controls": "1/9"}
{"CDR-L1": "KSSQSVLYESRNQNSVA", "CDR-L2": "WASTRES", "CDR-L3": "QRYHRLPLS", "Kd (apparent)": "nd", "seen in": "0/3", "signal with controls": "4/9"}
{"CDR-L1": "KSSQSVLYWSRNKNSVA", "CDR-L2": "WASTLES", "CDR-L3": "QQYHRIPLS", "Kd (apparent)": "1.3 µM", "seen in": "3/3", "signal with controls": "0/9"}
{"CDR-L1": "KSSQSVLYEMRNNNSVA", "CDR-L2": "WASTAES", "CDR-L3": "QQYHRLPLS", "Kd (apparent)": "50 µM", "seen in": "3/3", "signal with controls": "6/9"}
{"CDR-L1": "KSDQSVLYESRNKNNVA", "CDR-L2": "WASTRES", "CDR-L3": "QQYCRLPLS", "Kd (apparent)": "2.4 nM", "seen in": "3/3", "signal with controls": "1/9"}
{"CDR-L1": "KSSQSVLYESRGKNSVA", "CDR-L2": "WASTRMS", "CDR-L3": "QQYHRLPLS", "Kd (apparent)": "8.8 nM", "seen in": "3/3", "signal with controls": "2/9"}
{"CDR-L1": "KSSQSVLYESRNKNSVG", "CDR-L2": "WASTRES", "CDR-L3": "IQYHRLKLS", "Kd (apparent)": "nd", "seen in": "0/3", "signal with controls": "0/9"}

Excerpt, the first 3 entries:

{"CDR-L1": "KHSQSVPYESRNKNSVD", "CDR-L2": "WASTRES", "CDR-L3": "QQYHRLPLS", "Kd (apparent)": "nd", "seen in": "0/3", "signal with controls": "2/9"}
{"CDR-L1": "KSSQSELYYSRNKNSVA", "CDR-L2": "WASTRES", "CDR-L3": "MQYHRLPLS", "Kd (apparent)": "17 nM", "seen in": "3/3", "signal with controls": "5/9"}
{"CDR-L1": "KSKQSVLYESRNKNSYA", "CDR-L2": "WASNRES", "CDR-L3": "QQYHRLPLS", "Kd (apparent)": "120 µM", "seen in": "3/3", "signal with controls": "1/9"}

Parent in this assay: reference entry 4.4 nM, copy in this library 48 nM.